From US20230406950A1 (LYVGEN BIOPHARMA, published 2023) come the findings set out here.

By UniProt entry, the sequences of proteins in these tests, tags left out. Residues count along the entry.
UniProt Q07011, 24-255: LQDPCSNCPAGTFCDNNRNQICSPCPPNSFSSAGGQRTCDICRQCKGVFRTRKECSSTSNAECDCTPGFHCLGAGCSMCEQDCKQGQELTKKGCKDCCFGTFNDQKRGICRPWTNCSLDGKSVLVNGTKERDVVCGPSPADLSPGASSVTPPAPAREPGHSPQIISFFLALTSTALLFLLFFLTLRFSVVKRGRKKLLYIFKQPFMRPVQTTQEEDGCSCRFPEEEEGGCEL

For test [1], the target named is T1, human CD137 expressed on cells (human, UniProt Q07011 24-255).
T1 construct: whole, on cells; also called 4-1BB; TNFRSF9
Kind of test: FACS on CHO cells expressing human CD137 (MFI). The procedure: (§1) Anti-GITR/CD137 bi-specific antibodies were analyzed by FACS for their binding properties to human GITR and/or human CD137 expressed on CHO cells. Briefly, cultured cells were harvested, counted and cell viability was evaluated using the Trypan Blue exclusion method. Viable cells were then adjusted to 2×10⁶ cells per mL in PBS containing 2% BSA. 100 μL of this cell suspension were further aliquoted per well into a V-bottom 96-well plate. […] After incubation for 2 hours at 4° C., cells were centrifuged (3 min, 1000× g), washed with 250 μL/well BSA-containing FACS Stain Buffer, resuspended and incubated for an additional 1 hour at 4° C. with 100 μL/well fluorochrome-conjugated anti-IgG antibody for detection of the bisepecific antibody. Cells were then washed with 250 μL/well BSA-containing FACS Stain Buffer, resuspended in 100 μL/well FACS Stain Buffer, acquired and analyzed using a FACS machine. Binding of the bispecific antibodies to human GITR or human CD137 expressing CHO cells were evaluated and the mean fluorescence intensity is plotted in histograms or dot plots.

Test [2] concerns the target T2, human GITR expressed on cells (human, UniProt Q9Y5U5 26-241).
T2 construct: whole, on cells; also called TNFRSF18; CD357
T2 sequence (looked up): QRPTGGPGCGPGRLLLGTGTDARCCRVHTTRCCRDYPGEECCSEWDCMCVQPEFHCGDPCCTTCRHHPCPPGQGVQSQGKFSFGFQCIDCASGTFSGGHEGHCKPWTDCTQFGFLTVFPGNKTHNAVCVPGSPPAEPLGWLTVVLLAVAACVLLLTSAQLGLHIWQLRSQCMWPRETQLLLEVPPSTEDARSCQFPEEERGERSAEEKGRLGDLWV
The experiment in a line: flow cytometry (FACS), MFI, CHO cells expressing human GITR. As to the method:
as §1

B1: Ly760 (bispecific antibody, human IgG1, kappa)
heavy: QVQLQESGPGLVKPSETLSLTCTVSGFSLTSYNVHWIRQPPGKGLEWIGVIWSGVRTDYNSVLKPRVTISVDTSKNQFSLKLSSVTAADTAVYYCARGTYDDNYHDVMDAWGQGTLVTVSSASTKGPSVFPLAPSSKSTSGGTAALGCLVKDYFPEPVTVSWNSGALTSGVHTFPAVLQSSGLYSLSSVVTVPSSSLGTQTYICNVNHKPSNTKVDKKVEPKSCDKTHTCPPCPAPELLGPSVFLFPPKPKDTLMISRTPEVTCVVVDVSHEDPEVKFNWYVDGVEVHNAKTKPREEQYNSTYRVVSVLTVLHQDWLNGKEYKCKVSNKALPAPIEKTISKAKGQPREPQVYTLPPSREEMTKNQVSLTCLVKGFYPSDIAVEWESNGQPENNYKTTPPVLDSDGSFFLYSKLTVDKSRWQQGNVFSCSVMHEALHNHYTQKSLSLSPGK
light: EIVLTQSPATLSLSPGERATLSCRASKSVRTGMHWYQQKPGQAPRLLIYGASNLESGIPARFSGSGSGTDFTLTISSLEPEDFAVYYCQQSWNHFTFGQGTKLEIKRTVAAPSVFIFPPSDEQLKSGTASVVCLLNNFYPREAKVQWKVDNALQSGNSQESVTEQDSKDSTYSLSSTLTLSKADYEKHKVYACEVTHQGLSSPVTKSFNRGECGGGGSGGGGSGGGGSGGGGSDIQMTQSPSSLSASVGDRVTITCRASQDIRSNLNWYQQKPGGAVKLLIYYTSRLHSGVPSRFSGSGSGTDYTLTISSLQPEDFATYFCQQSEKLPRTFGGGTKVEIRGGGGSGGGGSGGGGSGGGGSQVQLVQSGAEVKKPGASVKVSCKASGYTFAGFEMHWVRQAPGQGLEWMGAIDPKTGGTDYNQKFKDRVTMTRDTSISTAYMELSRLRSDDTAVYYCARDLGYFDVWGQGTLVTVSS
Regarding B1, the half-maximal effective concentration (EC50 (read off the curve)) in test [1] is roughly 0.3 µg/mL. For the same molecule, the binding result in test [2] is given as “binds”.

B2: Ly761 (bispecific antibody, human IgG1, kappa)
heavy: B1 heavy
light: EIVLTQSPATLSLSPGERATLSCRASKSVRTGMHWYQQKPGQAPRLLIYGASNLESGIPARFSGSGSGTDFTLTISSLEPEDFAVYYCQQSWNHFTFGQGTKLEIKRTVAAPSVFIFPPSDEQLKSGTASVVCLLNNFYPREAKVQWKVDNALQSGNSQESVTEQDSKDSTYSLSSTLTLSKADYEKHKVYACEVTHQGLSSPVTKSFNRGECGGGGSGGGGSGGGGSGGGGSQVQLVQSGAEVKKPGASVKVSCKASGYTFAGFEMHWVRQAPGQGLEWMGAIDPKTGGTDYNQKFKDRVTMTRDTSISTAYMELSRLRSDDTAVYYCARDLGYFDVWGQGTLVTVSSGGGGSGGGGSGGGGSGGGGSDIQMTQSPSSLSASVGDRVTITCRASQDIRSNLNWYQQKPGGAVKLLIYYTSRLHSGVPSRFSGSGSGTDYTLTISSLQPEDFATYFCQQSEKLPRTFGGGTKVEIR
With B2, in test [1], the “EC50 (read off the curve)” value was roughly 0.3 µg/mL.

As usually defined, the EC50 (read off the curve) is the concentration that produces a half-maximal response. Read a low EC50 (read off the curve) as a more potent agent.
